Molecular target: Dipeptidyl peptidase 4 (Homo sapiens, UniProt P27487)
Assay: Inhibition of DPP4 in human plasma using Gly-Pro-AMC substrate incubated for 20 mins by fluorometry

Amino acid sequences for entries named in this document (tags omitted).
UniProt P27487, whole entry: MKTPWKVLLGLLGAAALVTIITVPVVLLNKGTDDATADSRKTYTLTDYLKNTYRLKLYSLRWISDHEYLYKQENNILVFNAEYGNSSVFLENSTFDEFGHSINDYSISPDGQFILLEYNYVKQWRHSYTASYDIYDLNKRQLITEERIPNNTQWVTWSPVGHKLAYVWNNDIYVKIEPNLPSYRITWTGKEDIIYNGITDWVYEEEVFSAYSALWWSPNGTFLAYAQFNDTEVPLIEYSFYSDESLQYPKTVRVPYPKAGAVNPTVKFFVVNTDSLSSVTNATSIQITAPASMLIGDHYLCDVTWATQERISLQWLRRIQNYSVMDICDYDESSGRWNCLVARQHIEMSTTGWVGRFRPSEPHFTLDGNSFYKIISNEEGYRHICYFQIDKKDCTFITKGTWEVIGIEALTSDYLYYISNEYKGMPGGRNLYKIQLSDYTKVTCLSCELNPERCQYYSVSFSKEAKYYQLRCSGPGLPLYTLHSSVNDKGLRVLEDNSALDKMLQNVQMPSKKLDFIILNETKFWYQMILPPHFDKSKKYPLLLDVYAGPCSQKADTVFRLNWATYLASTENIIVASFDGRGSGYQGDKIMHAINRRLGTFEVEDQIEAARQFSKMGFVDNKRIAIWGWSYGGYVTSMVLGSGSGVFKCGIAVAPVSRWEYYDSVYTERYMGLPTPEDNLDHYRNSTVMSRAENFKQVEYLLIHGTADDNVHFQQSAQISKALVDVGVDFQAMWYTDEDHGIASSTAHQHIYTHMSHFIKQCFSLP

IC50: 2530 nM
SMILES: CC[C@H](C)[C@H](N)C(=O)N1CCC[C@H]1C(=O)N[C@H](C(=O)O)[C@@H](C)CC [DIPROTIN A]

Reference: ChEMBL document CHEMBL3351808, “Thiophenes, polyacetylenes and terpenes from the aerial parts of Eclipata prostrate” (Bioorg Med Chem, 2014)
